Source: patent US10179769B2, “Histone demethylase inhibitors” (CELGENE QUANTICEL RESEARCH, INC., priority 2012, dated 2019)

tested on: KYSE-150 esophageal carcinoma cell line; assay: Cell proliferation assay, BrdU incorporation ELISA; assay type: cell-based, human; settings: Homo sapiens; KYSE-150, BrdU incorporation after 168 hr compound incubation; read-out: Cellular IC50

| IC50 [µM] | Structure (SMILES) |
| --- | --- |
| > 10 | CC1(C)CCC(CNc2cnccc2C(=O)O)c2ccccc21 (stereo not shown) [Example 59, 3-{[(4,4-dimethyl-1,2,3,4-tetrahydronaphthalen-1-yl)-methyl]amino}pyridine-4-carboxylic acid] |
| > 10 | O=C(O)c1ccncc1NCC1CCCc2c(F)cccc21 (stereo not shown) [Example 54, 3-{[(5-fluoro-1,2,3,4-tetrahydronaphthalen-1-yl)-methyl]amino}pyridine-4-carboxylic acid] |
| > 10 | O=C(O)c1ccncc1NCc1ccc(C2CC2)cc1 [Example 25, 3-[(4-cyclopropylbenzyl)amino]pyridine-4-carboxylic acid] |
| 0.1 to 1 | O=C(O)c1ccncc1NCC1CCCc2cc(OCCc3ccccc3)ccc21 (stereo not shown) [Example 89, 3-({[6-(2-phenylethoxy)-1,2,3,4-tetrahydronaphthalen-1-yl]methyl}amino)pyridine-4-carboxylic acid] |
| > 10 | O=C(O)c1ccncc1NCC1=CCCc2ccc(F)cc21 [Example 51, 3-{[(7-fluoro-3,4-dihydronaphthalen-1-yl)methyl]-amino}pyridine-4-carboxylic acid] |
| > 10 | O=C(O)c1ccncc1NC[C@@H]1CCCc2ccccc21 [Example 48, 3-{[(1R)-1,2,3,4-tetrahydronaphthalen-1-yl-methyl]-amino}pyridine-4-carboxylic acid] |
| 1 to 10 | O=C(O)c1ccncc1NCC1CCOc2cc(-c3ccccc3)ccc21 (stereo not shown) [Example 69, 3-{[(7-phenyl-3,4-dihydro-2H-chromen-4-yl)methyl]-amino}pyridine-4-carboxylic acid] |
| > 10 | O=C(O)c1ccncc1NCC12CC3CC(CC(C3)C1)C2 [Example 42, 3-[(adamantan-1-ylmethyl)amino]pyridine-4-carboxylic acid] |
| > 10 | Cc1cc(Cl)ccc1CNc1cnccc1C(=O)O [Example 15, 3-[(4-chloro-2-methylbenzyl)amino]pyridine-4-carboxylic acid] |
| > 10 | O=C(O)c1ccncc1NCC1CCOc2cc(Cl)ccc21 (stereo not shown) [Example 66, 3-{[(7-chloro-3,4-dihydro-2H-chromen-4-yl)methyl]-amino}pyridine-4-carboxylic acid] |
